Values of other authors as cited in US10292976B2, “Anti-malarial agent” (RIKEN, priority 2014, dated 2019).

Test system: malaria parasites
Settings: Non-patent Document 2; cited from earlier work

In the case of `O=C(O)c1cccc(C(=O)O)n1` [DPA, dipicolinic acid], the “antimalarial activity ED50” value is given as 1000 µM.
